Holding throughout (format): cell-based
For assay [1], the system named is CPOX. Briefly: RNA-seq of CPOX expression in compound-treated primary human hepatocytes. The conditions noted are these: significance FPKM ≥0.5, log 2(fold change) ≥0.3, q-value ≤0.05. The procedure:
(§1) Human hepatocytes were obtained from two donors from Massachusetts General Hospital, namely MGH54 and MGH63, and one donor from Lonza, namely HUM4111B. Cryopreserved hepatocytes were cultured in plating media for 16 hours, transferred to maintenance media for 4 hours. Cultured on serum-free media for 2 hours, then a compound was added. The hepatocytes were maintained on the serum-free media for 16 hours prior to gene expression analysis. Primary human hepatocytes were stored in the vapor phase of a liquid nitrogen freezer (about −130° C.).
(§2) Human hepatocytes cultured as described above were plated in 24-well format, adding 375,000 cells per well in a volume of 500 ul plating medium. Four hours before treatment, cells were washed with PBS and the medium was changed to either: fresh maintenance medium (complete) or modified maintenance medium. […]
(§3) For mRNA isolation and library prep, the NEBNext Poly(A) mRNA Magnetic Isolation Module and Directional Prep kit was used. RNA isolated from cells above was quantified, and prepared in […] of each sample in 50 μl of nuclease-free water. […]
(§4) Standard QC were applied (read integrity, mapping statistics, library complexity, fragment bias) to remove unsatisfactory samples. […] RNA-seq signals were also normalized by read depth and visualized using the UCSC browser. […]

The test system of assay [2] is SLC37A4. The experiment in a line: RNA-seq of SLC37A4 expression in compound-treated primary human hepatocytes. The procedure: as §1
Human hepatocytes cultured as described above were plated in 24-well format, adding 375,000 cells per well in a volume of 500 ul plating medium. Four hours before treatment, cells were washed with PBS and the medium was changed to either: fresh maintenance medium (complete) or modified maintenance medium.
Compound stocks were prepared at 1000× final concentration and added in a 2-step dilution to the medium to reduce risk of a compound precipitating out of solution when added to the cells, and to ensure reasonable pipetting volumes. […]
as §3

Assay [3] relates to UGT1A1. Briefly: RNA-seq of UGT1A1 expression in compound-treated primary human hepatocytes. How it is done:
as §1, §2, §3, §4

Regarding GZD824 Dimesylate, the “CPOX Fold change (Log2)” value in assay [1] is 0.37 Log2. Moreover, the “SLC37A4 Fold Change (Log2)” value in assay [2] was found to be 0.74 Log2. Also, the “UGT1A1 Fold Change (Log2)” value in assay [3] turned out to be 0.86 Log2.

The values are drawn from patent US20210161997A1, “TREATING DISEASES VIA TARGETED MODULATION OF GENE SIGNALING NETWORKS” (Camp4 Therapeutics Corporation, priority 2018, published 2021).
